According to patent US20070149404A1, “Microbicidal compositions” (BASF AKTIENGESELLSCHAFT, priority 2003, published 2007):

Assay: Solubility in water at room temperature

(1RS, 5RS;1RS, 5SR)-5- (4-chlorobenzyl)-2,2-di- methyl-1-(1H-1,2,4-tri- azol-1-ylmethyl)cyclo- pentanol [Metconazole]
Aq. Solubility (ppm): 15 ppm
